{"source": "patent US20250154250A1", "about": "“CEACAM5 ADC-ANTI-PD1/PD-L1 COMBINATION THERAPY” (SANOFI, priority 2021, published 2025)", "key": {"[1]": {"target": "T1, recombinant human CEACAM5 (Homo sapiens, UniProt P06731)", "T1 sequence (P06731 35-676)": "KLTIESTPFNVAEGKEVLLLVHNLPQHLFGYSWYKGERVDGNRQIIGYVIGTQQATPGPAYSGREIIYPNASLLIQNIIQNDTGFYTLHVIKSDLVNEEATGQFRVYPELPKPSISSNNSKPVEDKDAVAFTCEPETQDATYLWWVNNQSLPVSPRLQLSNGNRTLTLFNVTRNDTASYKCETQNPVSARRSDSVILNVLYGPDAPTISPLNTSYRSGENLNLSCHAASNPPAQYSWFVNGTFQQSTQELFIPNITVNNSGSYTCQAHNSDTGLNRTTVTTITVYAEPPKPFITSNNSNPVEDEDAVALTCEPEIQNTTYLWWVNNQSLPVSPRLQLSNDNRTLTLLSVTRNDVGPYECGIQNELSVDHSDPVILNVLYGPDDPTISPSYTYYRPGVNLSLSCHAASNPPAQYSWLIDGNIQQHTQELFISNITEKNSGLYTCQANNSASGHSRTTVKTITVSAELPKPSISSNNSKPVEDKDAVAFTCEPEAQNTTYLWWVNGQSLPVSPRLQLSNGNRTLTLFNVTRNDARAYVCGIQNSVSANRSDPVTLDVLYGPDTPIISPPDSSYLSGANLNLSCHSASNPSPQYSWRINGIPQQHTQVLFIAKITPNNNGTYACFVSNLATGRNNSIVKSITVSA", "test": "ELISA binding to recombinant human CEACAM5", "conditions": "read-out: affinity (ELISA)", "description": "“Affinity” is defined, in theory, by the equilibrium association between the whole antibody and the antigen. It can be experimentally assessed by a variety of known methods, such as measuring association and dissociation rates with surface plasmon resonance or measuring the EC50 (or apparent KD) in an immunochemical assay (ELISA, FACS). In these assays, the EC50 is the concentration of the antibody which induces a response halfway between the baseline and maximum after some specified exposure time on a defined concentration of antigen by ELISA (enzyme-linked immuno-sorbent assay) or cell expressing the antigen by FACS (Fluorescence Activated Cell Sorting).\nAffinity for human CEACAM5 or for Macaca fascicularis CEACAM5 may be determined as the EC50 value in an ELISA using soluble recombinant CEACAM5 as capture antigen."}, "tumor cells": {"system": "tumor cells", "conditions": "see WO 2014/079886; cited from earlier work"}, "[2]": {"system": "heavily pre-treated high CEACAM5 expressers", "conditions": "monotherapy"}}, "data": [{"substance": "tusamitamab ravtansine", "values": [{"measurement": "EC50", "setting": "[1]", "result": "~0.02", "unit": "nM"}, {"measurement": "cytotoxic activity on tumor cells in vitro", "setting": "tumor cells", "result": "induce cytotoxic activity"}, {"measurement": "Most common Adverse Drug Reactions (ADRs)", "setting": "[2]", "result": "ocular toxicity (reversible without treatment discontinuation), and minimal hematological/nerve toxicity"}]}]}
